Results published in patent US9169509B2, “Topoisomerase 2b as a predictor of susceptibility to anthracycline-induced cardiotoxicity” (Board of Regents, The University of Texas System, priority 2013, dated 2015).

System: mouse heart
Experiment: Cardiac MRI for measuring cardiac function after chronic doxorubicin
Details: doxorubicin 5 mg/kg i.p. once a week for 5 weeks
[1] = Top2b+/+ and Top2b+/Δ mice, not in Top2bΔ/Δ

COc1cccc2c1C(=O)c1c(O)c3c(c(O)c1C2=O)C[C@@](O)(C(=O)CO)C[C@@H]3O[C@H]1C[C@H](N)[C@H](O)[C@H](C)O1 [doxorubicin]
Ejection fraction after treatment (Top2b+/+ and Top2b+/Δ mice, decreased from baseline 53%): 43% | End diastolic volume (cardiac MRI) [1]: markedly increased | End systolic volume (cardiac MRI) [1]: markedly increased | Change in ejection fraction (Top2bΔ/Δ mice): no change
